Assay results reported in patent US5925621A, “Method for preventing sexually transmitted diseases” (priority 1997, dated 1999).

Test system: mice
Settings: mouse, in vivo

Substance: hydroquinone sulfonic acid formaldehyde co-polymer [PS53]
- toxic symptoms: did not show toxic symptoms
